Experimental findings from patent US20260382612A1, “ANTI CANCER COMBINATIONS COMPRISING TARGETED THERAPY” (published 2026) are described below.

The subject of assay [1] is Human KRAS G12D mutation positive GP5d colorectal cancer cell line-derived xenograft. Briefly: In vivo combination therapy in GP5d xenograft mice (Example D). To be noted: Table 6, Example 1 30 mg/kg i.v. QW, Alpelisib 15 mg/kg p.o. QD, MRTX0902 50 mg/kg p.o. BID, Alisertib 10 mg/kg p.o. QD, monotherapy with the other solvent.
For assay [2], the system named is Human KRAS G12D mutation positive KP-4 pancreatic cancer cell line-derived xenograft. As to the kind of experiment: In vivo combination therapy in KP-4 xenograft mice (Example A2). To be noted: Table 3, Example 1 30 mg/kg i.v. QW, Alpelisib 15 mg/kg p.o. QD, MRTX0902 50 mg/kg p.o. BID, Alisertib 10 mg/kg p.o. QD, monotherapy with the other solvent.
In assay [3] the test system is Human KRAS G12D mutation positive AsPC-1 pancreatic cancer cell line-derived xenograft. As to the kind of experiment: In vivo combination therapy in AsPC-1 xenograft mice (Example B). To be noted: Table 4, Example 1 30 mg/kg i.v. QW, Afatinib 12.5 mg/kg p.o. QD, Everolimus 5 mg/kg p.o. QD, monotherapy with the other solvent.
Assay [4] deals with Human KRAS G12D mutation positive HPAC pancreatic cancer cell line and human CD3-positive T cells, mixed xenograft. Briefly: In vivo combination therapy with immune checkpoint inhibitor in mixed HPAC / CD3-positive T cell xenograft model (Example C). To be noted: Table 5, Example 1 30 mg/kg i.v. QW, Nivolumab 250 μg/head i.p. TIW, monotherapy with the other solvent.
Assay [5] relates to Human KRAS G12D mutation positive GP5d colorectal cancer cell line-derived xenograft. Briefly: In vivo combination therapy with cetuximab in GP5d xenograft mice (Example E). To be noted: Table 7, day 21 vs day 0, Example 1 30 mg/kg i.v. QW, Cetuximab 50 mg/kg i.p. BIW, monotherapy with the other solvent.
The subject of assay [6] is Human KRAS G12D mutation positive KP-4 pancreatic cancer cell line-derived xenograft. As to the kind of experiment: In vivo combination therapy in KP-4 xenograft mice (Example A1). To be noted: Table 2, Example 1 30 mg/kg i.v. QW, Palbociclib 60 mg/kg p.o. QD, TNO155 10 mg/kg p.o. BID, monotherapy with the other solvent.

Regarding `COc1cc(Nc2ncc3c(n2)-c2ccc(Cl)cc2C(c2c(F)cccc2OC)=NC3)ccc1C(=O)O`, the “TGI (%) after 20 days of the first treatment” value (shortened to “TGI (%) after 20 days”) in assay [1] is reported as −3%. Besides, the “TGI (%) after 21 days of the first treatment” value (“TGI (%) after 21 days” for short) in assay [2] is −10%.

Regarding `CN(C)C/C=C/C(=O)Nc1cc2c(Nc3ccc(F)c(Cl)c3)ncnc2cc1O[C@H]1CCOC1`, in assay [3], the “TGI (%) after 21 days” value came to 40%.

`Cc1ncsc1-c1ccc([C@H](CO)NC(=O)[C@@H]2C[C@@H](O)CN2C(=O)[C@H](C(C)C)n2cc(-c3ccc(COc4c(-c5c(C)c(F)cc6[nH]ncc56)c(C5CC5)cc5c(N6C[C@@H]7C[C@H]6CN7)nc(OC6CCOCC6)nc45)cc3)nn2)cc1`: the figures for the “TGI (%) after 21 days” value in assay [3], in assay [6] and in assay [2] were 47%, 65% and 16%, respectively. Besides, in assay [4], the “TGI (%) after 14 days of the first treatment” value came out at 85%. Moreover, the “TGI (%)” value in assay [5] is on record as 55%. Besides, the “TGI (%) after 20 days” value in assay [1] is reported as 102%.

As for `C[C@@H]1OCC2(CCN(c3cnc(Sc4ccnc(N)c4Cl)c(N)n3)CC2)[C@@H]1N`, the “TGI (%) after 21 days” value in assay [6] is on record as 90%.

Regarding `CO[C@H]1C[C@@H]2CC[C@@H](C)[C@@](O)(O2)C(=O)C(=O)N2CCCC[C@H]2C(=O)O[C@H]([C@H](C)C[C@@H]2CC[C@@H](OCCO)[C@H](OC)C2)CC(=O)[C@H](C)/C=C(\C)[C@@H](O)[C@@H](OC)C(=O)[C@H](C)C[C@H](C)/C=C/C=C/C=C/1C`, the “TGI (%) after 21 days” value in assay [3] was determined as 41%.

Regarding `Cc1nc(NC(=O)N2CCC[C@H]2C(N)=O)sc1-c1ccnc(C(C)(C)C(F)(F)F)c1`, the “TGI (%) after 20 days” value in assay [1] worked out at 16%. In addition, the “TGI (%) after 21 days” value in assay [2] was −2%.
